Data on one compound can be found in ChEMBL document CHEMBL5576053, “Nonclassical Zwitterions as a Design Principle to Reduce Lipophilicity without Impacting Permeability” (J Med Chem, 2024).

SMILES strings stand for the structures.

Data set [1] is described as follows: Ionization constant, pKa of compound at pH 5 to 10. It is filed as physicochemical.
A short description of data set [2]: Ionization constant, pKa of compound at pH 1 to 5. It is filed as physicochemical.

By pKa is commonly meant the negative logarithm of the acid dissociation constant. Higher therefore signals a group that holds its proton tightly. On to `CC[C@H]1NC(=O)[C@@H](NC(=O)c2ncccc2O)[C@@H](C)OC(=O)[C@H](c2ccccc2)NC(=O)[C@@H]2CC(=O)CCN2C(=O)[C@H](Cc2ccc(N(C)C)cc2)N(C)C(=O)[C@@H]2CCCN2C1=O` [PRISTINAMYCIN 1A], for which the pKa in data set [1] came to 7.2; in data set [2], 1.
